Experimental data from patent publication US6538029B1, “Methods for treatment of renal cell carcinoma” (Cell Pathways, priority 2002, dated 2003).

System: cGMP and cAMP PDE activity of 786-O fractions

COc1ccc(C2CNC(=O)C2)cc1OC1CCCC1 (stereo not drawn) [Rolipram]
Inhibition of the third peak at fraction 85 (PDE4 activity) (786-O profile): inhibited

O=C([O-])C1CCN(c2nc(NCc3ccc4c(c3)OCO4)c3cc(Cl)ccc3n2)CC1.[Na+] [Example E4021]
Inhibition of cGMP PDE activity of the 786-O profile (100 nM): not inhibited

Nc1nc2c(ncn2[C@@H]2O[C@@H]3COP(=O)(O)O[C@H]3[C@H]2O)c(=O)[nH]1 [cGMP, cyclic 3′,5′-guanosine monophosphate]
Inhibition of cAMP activity of the 786-O profile (5 μM): partially inhibited
